{
  "source": "patent US20260215418A1",
  "about": "“HYDROCARBON ALCOHOLS AND THEIR DERIVATIVES AS SYNERGISTS IN PESTICIDE ACTIVITY” (priority 2022, published 2026)",
  "test_system": "Musca domestica L.",
  "experiment": "Contact test on non-porous tile, Musca domestica",
  "type": "in vivo",
  "settings": "48 h; for Mortality %/time (h): single substance alone; for Mortality %: 25° C, insects on treated tile",
  "method": "1 ml of Composition 1 was applied to the tile. […] 1 ml of Composition 8a was distributed on the tile. […] 1 ml of Composition 8a was distributed on a tile. […] At the end of the 30 minutes, the flies were transferred to an untreated area.\n1 ml of Composition 3 was applied to the tile. […] 1 ml of Composition 8c was distributed on the tile. […] 1 ml of Composition 8c was distributed on a tile. […] At the end of the 30 minutes, the flies were transferred to an untreated area.\n1 ml of Composition 9a was distributed on the tile. […] 1 ml of Composition 9a was distributed on a tile. […] At the end of the 30 minutes, the flies were transferred to an untreated area. […] 1 ml of Composition 10a was distributed on the tile. […] 1 ml of Composition 10a was distributed on a tile. […] At the end of the 30 minutes, the flies were transferred to an untreated area. […] 1 ml of Composition 8c was distributed on the tile. […] 1 ml of Composition 8c was distributed on a tile. […] At the end of the 30 minutes, the flies were transferred to an untreated area.\n1 ml of Composition 5a, was distributed on the tile. […] 1 ml of Composition 6a was distributed on the tile. […] 1 ml of Composition 7a was distributed on the tile.\n1 ml of Composition 3 was distributed on the tile. […] 1 ml of Composition 9a was distributed on the tile. […] 1 ml of Composition 11a was distributed on a tile. […] 1 ml of Composition 12a was distributed on a tile.\n1 ml of Composition 3 was distributed on the tile. […] 1 ml of Composition 17a was distributed on a tile. […] 1 ml of Composition 18a was distributed on a tile. […] Each experiment (A-C) was conducted in duplicate.\n1 ml of Composition 23a was distributed on the tile. […] 1 ml of Composition 20a was distributed on a tile. […] Each experiment (A-B) was conducted in duplicate.\n1 ml of Composition 3 was distributed on the tile. […] 1 ml of Composition 25a was distributed on a tile. […] Each experiment (A-B) was conducted in duplicate.\n1 ml of Composition 23a was distributed on the tile. […] 1 ml of Composition 27a was distributed on a tile. […] Each experiment (A-B) was conducted in duplicate.\n1 ml of Composition 43 was distributed on the tile. […] 1 ml of Composition 26a was distributed on a tile. […] 1 ml of Composition 26b was distributed on a tile. […] 1 ml of Composition 26c was distributed on a tile.\n1 ml of Composition 43 was distributed on the tile. […] 1 ml of Composition 22a was distributed on a tile. […] 1 ml of Composition 22b was distributed on a tile. […] 1 ml of Composition 22c was distributed on a tile.\n1 ml of Composition 23a was distributed on the tile. […] 1 ml of Composition 44a was distributed on a tile.\n1 ml of Composition 43 was distributed on the tile. […] 1 ml of Composition 33 was distributed on a tile. […] 1 ml of Composition 33 was distributed on a tile. […] At the end of the 30 minutes, the flies were transferred to an untreated area.\n1 ml of Composition 1 was distributed on the tile. […] 1 ml of Composition 34 was distributed on a tile. […] 1 ml of Composition 34 was distributed on a tile. […] At the end of the 30 minutes, the flies were transferred to an untreated area.\n1 ml of Composition 3 was distributed on the tile. […] 1 ml of Composition 31a was distributed on a tile. […] 1 ml of Composition 31b was distributed on a tile. […] 1 ml of Composition 31b was distributed on a tile. […] At the end of the 30 minutes, the flies were transferred to an untreated area. […] 1 ml of Composition 38a was distributed on a tile. […] 1 ml of Composition 38a was distributed on a tile. […]",
  "data": [
    {"substance": "Oleic alcohol [Oleic alcohol 95%]", "values": [
      {"measurement": "Mortality %/time (h)", "setting": "0.68 mg/ml", "result": "6/48 ^ %"}
    ]},
    {"substance": "Spinosad", "values": [
      {"measurement": "Mortality %/time (h)", "setting": "0.24 mg/ml", "result": "33/48 ^ %"}
    ]},
    {"substance": "Spinosad [Composition 43, reference compound]", "values": [
      {"measurement": "Mortality %", "setting": "Example 19", "result": 33, "unit": "%"},
      {"measurement": "Mortality %", "setting": "Example 23", "result": 33, "unit": "%"},
      {"measurement": "Mortality %", "setting": "Example 27", "result": 33, "unit": "%"}
    ]}
  ]
}
